Values quoted from earlier work in US20110288128A1.

Columns and labels:
[1] = SUFENTA and Actiq package inserts
[2] = Paradis et al. 2002
[3] = swallowed drug

In the case of `CCC(=O)N(c1ccccc1)C1(COC)CCN(CCc2cccs2)CC1`, the protein binding [1] is listed as 91-93% and the pKa [2] is listed as 8.01.
For `CCC(=O)N(c1ccccc1)C1CCN(CCc2ccccc2)CC1`, the GI bioavailability [3] is given as 30-40% and the pKa [2] is given as 8.43.

Only a part of the results on these compounds is given; other tests are left out.
